Measurements published in PubChem BioAssay (NCI).
The entries are a selection whose mix differs from that of the whole data set. Some compounds were tested as several samples or in several runs, with calls that do not always agree. Active and inactive are the calls of the source. Rule as the data show it: active = growth inhibition above about 70%; inactive = the rest.

Assay: NCI Yeast Anticancer Drug Screen. Data for the rad14 strain (AID 159);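 also: 0% = growth of vehicle-treated control cultures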
Conditions: S. cerevisiae rad14 strain growth inhibition, hits give high values
Protocol: Growth inhibition of yeast strains with defined genetic alterations is measured as a screen for potential anti-cancer activity. Selected strains with alterations in DNA damage repair or cell cycle control were exposed to compounds and growth inhibition was measured relative to vehicle treated controls. The strain used in this assay is rad14

SMILES	growth inhibition (at 1.2 µM)	growth inhibition (at 3.7 µM)	growth inhibition (at 11.0 µM)	growth inhibition (at 33.0 µM)	growth inhibition (at 100.0 µM)
ClCCN1CCCCC1CCl (stereo not given)	inactive: -1%	inactive: 2%	inactive: 16%	inactive: 65%	active: 95%
COc1ccc(C[N+](C)(CCCl)CCCl)c([N+](=O)[O-])c1	inactive: 11%	inactive: 13%	inactive: 28%	inactive: 45%	inactive: 47%
Cc1cccc(C[N+](C)(CCCl)CCCl)c1[N+](=O)[O-]	inactive: -10%	inactive: 8%	active: 79%	active: 94%	active: 95%
Cn1cnc([N+](=O)[O-])c1C[N+](C)(CCCl)CCCl	inactive: -21%	inactive: -8%	inactive: 45%	active: 83%	active: 90%
COc1ccc([N+](=O)[O-])c(C[N+](C)(CCCl)CCCl)c1	inactive: -6%	inactive: -8%	inactive: 16%	active: 81%	active: 93%
Cc1ccc([N+](=O)[O-])c(C[N+](C)(CCCl)CCCl)c1	inactive: -20%	inactive: 17%	active: 80%	active: 93%	active: 95%
